The subject of the experiment is plasma lipid metabolome. The note with it: treated mice, trial 1, 4 weeks; untreated 1,400 nmol/g. The procedure:
Mouse tissue and plasma samples were a generous donation to Lipomics Technologies from Dr. Edward Leiter of the Jackson Laboratory (Bar Harbor, Me.). Samples included the plasma, heart, liver and inguinal adipose of mice treated with pharmaceuticals or their corresponding controls.
In both studies, five treated and five control mice were used. Following the treatments and the killing of the mice, tissues and plasma were taken, chilled to −80° C. and shipped to the analysis laboratory at Lipomics Technologies in a frozen state.
The lipids from plasma and tissues were extracted in the presence of authentic internal standards by the method of Folch et al. (J. Biol. Chem. 226, 497-509, 1957) by homogenization in a fluid extractant consisting of chloroform:methanol (2:1 vol:vol). Plasma (200 μl), or 10 mg inguinal adipose tissue was used for each analysis. For each sample, an appropriate mass of internal standard was added. […]

Regarding `CN(CCOc1ccc(CC2SC(=O)NC2=O)cc1)c1ccccn1` (stereo not shown) [rosiglitazone], the “Total plasma triacylglyceride concentrations” value came out at 400 nmol/g.

The values are drawn from patent US20040143461A1, “Generating, viewing, interpreting, and utilizing a quantitative database of metabolites” (Lipomics Technologies, Inc., priority 2001, published 2004).
